Measured values as given in patent US10987426B2 (ADOCIA, priority 2017, dated 2021).

Experiments:
[1] = Physical stability of compositions in cartridges under static conditions at 37° C., visual inspection; conditions: 1 mg/mL glucagon
[2] = Thioflavin T (ThT) fluorescence fibrillation test, latent period; type: physicochemical; conditions: glucagon alone at acidic pH

- Physical stability of glucagon solution at acidic pH [1]: 2 days
- Stability under ThT measurement conditions [2]: only stable for a few minutes
SMILES: CSCC[C@H](NC(=O)[C@H](CC(C)C)NC(=O)[C@H](Cc1c[nH]c2ccccc12)NC(=O)[C@H](CCC(N)=O)NC(=O)[C@@H](NC(=O)[C@H](Cc1ccccc1)NC(=O)[C@H](CC(=O)O)NC(=O)[C@H](CCC(N)=O)NC(=O)[C@H](C)NC(=O)[C@H](CCCN=C(N)N)NC(=O)[C@H](CCCN=C(N)N)NC(=O)[C@H](CO)NC(=O)[C@H](CC(=O)O)NC(=O)[C@H](CC(C)C)NC(=O)[C@H](Cc1ccc(O)cc1)NC(=O)[C@H](CCCCN)NC(=O)[C@H](CO)NC(=O)[C@H](Cc1ccc(O)cc1)NC(=O)[C@H](CC(=O)O)NC(=O)[C@H](CO)NC(=O)[C@@H](NC(=O)[C@H](Cc1ccccc1)NC(=O)[C@@H](NC(=O)CNC(=O)[C@H](CCC(N)=O)NC(=O)[C@H](CO)NC(=O)[C@@H](N)Cc1c[nH]cn1)[C@@H](C)O)[C@@H](C)O)C(C)C)C(=O)N[C@@H](CC(N)=O)C(=O)N[C@H](C(=O)O)[C@@H](C)O [glucagon, human glucagon]
